The chains behind the UniProt entries cited, without tags or fusion partners.
UniProt Q9P992, whole entry: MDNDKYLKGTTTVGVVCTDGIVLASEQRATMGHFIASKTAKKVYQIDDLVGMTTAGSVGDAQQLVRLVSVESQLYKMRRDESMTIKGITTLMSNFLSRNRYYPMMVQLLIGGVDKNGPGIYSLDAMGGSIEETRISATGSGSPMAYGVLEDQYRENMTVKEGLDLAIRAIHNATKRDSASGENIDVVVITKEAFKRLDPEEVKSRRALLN

According to US8193377B2, “(−)-epigallocatechin gallate derivatives for inhibiting proteasome” (The Hong Kong Polytechnic University, priority 2004, dated 2012):

Biological target: 20S prokaryotic proteasome (UniProt Q9P992)
Experiment: Table 2: effects of tea polyphenols on 20S prokaryotic proteasome activities
Type: biochemical
Conditions: Table 2, This work
Description: Removal of an —OH from B-ring of (−)-EGCG generates (−)-ECG that has decreased proteasome-inhibitory potency in vitro (0.58 μM). To further examine the effects of B-ring —OH group deletion on proteasome-inhibitory and cell death-inducing abilities, we synthesized several novel EGCG analogs with eliminated —OH groups on the B-ring as well as their putative prodrugs, the peracetate-protected counterparts. By using a purified 20S proteasome and a chymotrypsin-like fluorogenic substrate, the proteasome-inhibitory effects of the following unprotected polyphenol analogs are determined: […]

| Structure (SMILES) | IC50 [nM] |
| --- | --- |
| O=C(O[C@@H]1Cc2c(O)cc(O)cc2O[C@@H]1c1cccc(O)c1)c1cc(O)c(O)c(O)c1 | 1220 |
| O=C(O[C@H]1Cc2c(O)cc(O)cc2O[C@H]1c1cccc(O)c1)c1cc(O)c(O)c(O)c1 | 840 |
